Assay results taken from publication PMC4303648.

Assays:
[1] = biological target: reconstituted thin filament (chicken skeletal actin decorated with human recombinant cardiac troponin and tropomyosin) (chicken | human) (UniProt P68139); assay: single-molecule fluorescence imaging (oblique angle fluorescence microscopy of tightropes); thin filament tightropes in sub-maximal activation conditions: pCa 6, 15 nM myosin, 0.1 μM ATP; kymographs
[2] = biological target: reconstituted thin filament (chicken skeletal actin decorated with human recombinant cardiac troponin and tropomyosin) (chicken | human) (UniProt P68139); assay: single-molecule fluorescence imaging (oblique angle fluorescence microscopy of tightropes); intensity histograms of myosin clusters on thin filament tightropes over a range of myosin, calcium and ATP concentrations, fitted globally to a three-state kinetic model; data set (i) 10 fps, data set (ii) 3.8 fps; all data fit at pCa 6.4

## myosin S1-eGFP-RLC (complex)
[1]
  myosins per cluster (myosins per cluster): < 12
[2]
  K2 (myosin-induced equilibrium constant closed to open state transition): 85 µM and 37 µM
  d (size of the regulatory unit, additional myosins bound): 11.6 and 11
  ka (intrinsic myosin binding rate): 38 s⁻¹ and 47 s⁻¹

“And” between values parts separate entries of the source, which are not always exact repeats. Equal entries are not always repeated.
